Target: recombinant human TNFα (Peprotech, Cat. No. 300-01) (human, UniProt P01375 77-233)
Experiment: cell-based or functional assay

Protein sequences, listed by entry. Tags and fused reporters are not part of them. Residues count along the entry.
UniProt P01375, 77-233 limits assumed: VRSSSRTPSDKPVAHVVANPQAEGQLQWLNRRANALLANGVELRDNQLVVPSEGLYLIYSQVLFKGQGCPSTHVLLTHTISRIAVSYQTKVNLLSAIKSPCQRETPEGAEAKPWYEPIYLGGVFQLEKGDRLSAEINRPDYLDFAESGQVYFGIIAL

B1: infliximab (antibody, V domains shown)
VH: EVKLEESGGGLVQPGGSMKLSCVASGFIFSNHWMNWVRQSPEKGLEWVAEIRSKSINSATHYAESVKGRFTISRDDSKSAVYLQMTDLRTEDTGVYYCSRNYYGSTYDYWGQGTTLTVSS
VL: DILLTQSPAILSVSPGERVSFSCRASQFVGSSIHWYQQRTNGSPRLLIKYASESMSGIPSRFSGSGSGTDFTLSINTVESEDIADYYCQQSHSWPFTFGSGTNLEVKR
L929 assay, IC50 of neutralization of TNFα-induced apoptosis (100 pM TNFα): 36.2 ng/ml

— patent publication US12209122
